Laboratory results reported in US8741883B2, “Compounds and methods for the diagnosis and treatment of amyloid associated diseases” (The Regents of the University of California—San Diego, priority 2005, dated 2014).

Chains of the proteins cited; added tags and fusions are not shown. Residues count along the entry.
UniProt P05067, 672-713 limits assumed: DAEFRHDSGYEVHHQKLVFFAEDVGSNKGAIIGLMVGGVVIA

Target: monoclonal anti-Aβ IgG (clone 6E10)-A-beta fibril interactions (Homo sapiens, UniProt P05067)
Details: for inhibition of the IgG-A-beta fibril interactions: clone 6E10, fibrils from A-beta 1-42

| IC50 [µM] | inhibition of the IgG-A-beta fibril interactions [%] | SMILES |
| --- | --- | --- |
| ~100 | 94 | Cc1ccc2nc(-c3ccc(NCCOCCOCCOCCO)cc3)sc2c1 [BTA-EG4] |
| ~100 | 99 | Cc1ccc2nc(-c3ccc(NCCOCCOCCOCCOCCOCCO)cc3)sc2c1 [BTA-EG6] |
